The numbers were not newly measured in US9272026B2, “HLA-A*1101-restricted WT1 peptide and pharmaceutical composition comprising the same” (International Institute of Cancer Immunology, Inc., priority 2006, dated 2016), which cites them from elsewhere.

Sequences of proteins named here, by UniProt entry; tags and fusion partners are left off. A change or cut given only in a name is not applied to a line headed by its entry.
UniProt P19544: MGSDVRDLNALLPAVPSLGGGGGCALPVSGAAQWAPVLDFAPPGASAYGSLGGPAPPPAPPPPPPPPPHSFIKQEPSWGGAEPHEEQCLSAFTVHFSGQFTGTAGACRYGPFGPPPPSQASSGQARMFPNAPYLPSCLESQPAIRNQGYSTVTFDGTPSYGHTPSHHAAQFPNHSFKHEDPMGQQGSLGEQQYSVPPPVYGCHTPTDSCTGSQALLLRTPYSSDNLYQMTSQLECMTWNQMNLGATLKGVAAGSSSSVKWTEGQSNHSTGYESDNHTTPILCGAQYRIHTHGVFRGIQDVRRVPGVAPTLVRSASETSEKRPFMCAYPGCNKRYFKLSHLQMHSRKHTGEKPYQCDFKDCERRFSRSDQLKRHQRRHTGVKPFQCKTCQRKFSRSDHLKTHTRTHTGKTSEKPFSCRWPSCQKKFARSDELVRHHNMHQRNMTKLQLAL

The series deals with human peripheral blood mononuclear cells having HLA-A*0201. As to conditions: human PBMCs having HLA-A*0201; Non-patent Document 11; cited from earlier work.

Consider “Db126 peptide: WT1 peptide having a high ability to bind to an HLA-A*0201 molecule (RMFPNAPYL; UniProt P19544 126-134, looked up, fragment)”, for which the “induction of WT1-specific CTLs” value is recorded as “WT1-specific CTLs are induced”.
